# From PubChem BioAssay AID454 (Sanford-Burnham Center for Chemical Genomics, 2006)
# This is a selection; strong and weak results do not stand in their true shares. The source made the active and inactive calls.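 The calls were made as follows: active = compound among top-ranked inhibitors of TNF-induced VCAM-1 adhesion protein staining, with the hit upheld by image or statistical review; inactive = the rest, including hits rejected on review.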
# Test: suppression of endothelial VCAM-1 upregulation – cell-based, plate reader, pooled HUVEC, TNFa stimulus (AID 454)
# Details: HUVEC TNFa-induced VCAM-1 surface immunofluorescence
row,Structure (SMILES),outcome
1,CP(=O)(Nc1ccccn1)Oc1ccccc1 (stereo not given),inactive
2,CP(=O)(Nc1ccc2c(c1)OCCO2)Oc1ccccc1 (stereo not given),inactive
3,CN(C)CCOC(=O)C(O)(c1ccccc1)C1CCCCC1 (stereo not given),inactive
4,Cc1ccc(C)c(NP(C)(=O)Oc2ccccc2)c1 (stereo not given),inactive
5,CP(=S)(Nn1cnnc1)Oc1ccccc1 (stereo not given),inactive
